Source: patent US8575203B2, “Chemical compounds” (Boehringer Ingelheim International GmbH, priority 2010, dated 2013)

Protein sequences, listed by entry. Tags and fused reporters are not part of them. Residues count along the entry.
UniProt O15530, 52-556: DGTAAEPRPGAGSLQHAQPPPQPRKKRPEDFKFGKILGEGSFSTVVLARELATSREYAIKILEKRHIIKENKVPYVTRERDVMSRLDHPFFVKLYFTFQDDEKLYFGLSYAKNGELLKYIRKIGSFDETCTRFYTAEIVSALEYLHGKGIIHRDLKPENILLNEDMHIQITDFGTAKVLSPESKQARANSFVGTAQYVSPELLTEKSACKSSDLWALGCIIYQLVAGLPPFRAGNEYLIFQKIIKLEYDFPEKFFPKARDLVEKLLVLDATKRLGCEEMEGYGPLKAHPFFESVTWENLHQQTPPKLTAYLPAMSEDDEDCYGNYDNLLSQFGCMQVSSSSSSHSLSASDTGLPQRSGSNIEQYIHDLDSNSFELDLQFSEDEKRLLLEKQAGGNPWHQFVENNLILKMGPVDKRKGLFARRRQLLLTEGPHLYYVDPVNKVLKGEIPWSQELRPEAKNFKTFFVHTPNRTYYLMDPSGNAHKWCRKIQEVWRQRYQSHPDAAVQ

Biological target: Recombinant human PDK1 enzyme (aa 52-556) (Homo sapiens (Human), UniProt O15530)
Experiment: PDK1 kinase assay
Type: biochemical
Procedure: The activity of the compounds according to the invention on the kinase PDK1 which inhibits the signal transduction pathway is determined in an in vitro kinase assay with recombinantly prepared protein:
Recombinant human PDK1 enzyme (aa 52-556) linked at its N-terminal end to His6 is isolated from baculovirus-infected insect cells. Purified enzyme may be obtained for example from the University of Dundee, Scotland. […]
The reaction is started by adding the ATP solution and the mixture is incubated for 90 min at RT. […] Then the plate is stuck down with sealing tape, 25 μL/well of scintillation solution (Microscint 0; Perkin Elmer; No. 6013611) are added and the amount of P33 precipitated is measured using the Wallac Betacounter. The measured data are evaluated using Graphpad Prism software.

SMILES: O=C(NCC#Cc1ccc2ncc(N[C@H]3CC[C@H](N4CCN(CC5CC5)CC4)CC3)nc2c1)c1cccn([C@H](CO)c2ccccc2)c1=O [I-65]
- IC50: 7 nM
